These results are taken from patent US7351686B2 (priority 2001, dated 2008).

The subject of the test is transgenic mice overexpressing human mutant SOD1 (ALS mice). Particulars: mouse, in vivo.

Regarding `Nc1nc2ccc(OC(F)(F)F)cc2s1` [Riluzole, 2-amino-6-(trifluoromethoxy)benzothiazole], the “increase in survival over control” value amounted to 9%.
